Drawing on ChEMBL document CHEMBL3228021, “Studies on analgesic agents. 1.1a Preparation of 1,2-diphenyl-2-(4-substituted 1-piperazinyl)ethanol derivatives and structure-activity relationships” (J Med Chem, 1979), this text covers inhibition for 3 compounds.

Assay [1] deals with Mus musculus. In words: Analgesic activity in sc dosed ddN mouse assessed as inhibition of light radiation-induced thermal pain in presence of naloxone hydrobromide by D'Amour-Smith method.
Assay [2] concerns Mus musculus. In words: Analgesic activity in po dosed ddN mouse assessed as inhibition of phenylquinone-induced writhing in presence of naloxone hydrobromide. A general note: An intraperitoneal irritant provokes the stretching counted in writhing tests.

Activity calls are given as the source filed them. The calls are words filed in the database; no cut-off is given here.

Consider `COc1ccc2c3c1O[C@H]1[C@@H](O)C=C[C@H]4[C@@H](C2)N(C)CC[C@@]341.COc1ccc2c3c1O[C@H]1[C@@H](O)C=C[C@H]4[C@@H](C2)N(C)CC[C@@]341.O.O=P(O)(O)O.O=P(O)(O)O` [CODEINE PHOSPHATE], for which the inhibition entry with Mus musculus [1] and in the assay on Mus musculus [2] was “inactive” each time.

Take `CC(C)=CCN1CC[C@]2(C)c3cc(O)ccc3C[C@H]1[C@H]2C`: the inhibition entry in the assay on Mus musculus [1] and with Mus musculus [2] was “inactive” each time.

For `COc1ccc(CN2CCN(C(c3ccccc3Cl)C(O)c3ccccc3)CC2)cc1` (stereo unspecified), the inhibition entry in the assay with Mus musculus [1] and in the assay on Mus musculus [2] was “inactive” throughout.
